# Ab-91 heavy chain CDR variants: yeast mating affinities

All variants were tested on one target, the spike HR2 peptide PDVDLGDISGINAS (SARS-CoV-2).

Parent: Ab-91, a human scFv built as VL, a (GGGGS)3 linker, VH. Only the CDRs of the heavy chain vary.
VL: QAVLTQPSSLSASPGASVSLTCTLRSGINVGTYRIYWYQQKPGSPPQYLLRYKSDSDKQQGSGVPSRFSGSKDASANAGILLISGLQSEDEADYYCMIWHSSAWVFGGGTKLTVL
VH: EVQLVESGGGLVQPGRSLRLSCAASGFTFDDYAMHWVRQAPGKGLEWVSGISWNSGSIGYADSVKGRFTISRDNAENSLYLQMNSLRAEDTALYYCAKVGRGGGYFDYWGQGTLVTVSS

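The parent was found by panning a naive human phage display library on the peptide. In library AAYL51, one, two or three CDR residues were substituted; doubles and triples were drawn at random. In AlphaSeq, yeast of one mating type display the scFv and yeast of the other type display the target. Pairs that bind mate more often; barcode pairs of the diploids are counted by sequencing. Each replicate has its own calibration line, from reference interactions of the BCL2 family. Each pool was mated in three replicate cultures.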

The parent's heavy chain CDRs are GFTFDDYAMH, GISWNSGSIGYADSVK, VGRGGGYFDY; each variant's own CDRs replace them letter for letter.
The read-out is the apparent dissociation constant on a log10 scale (nM): the lower, the stronger.
Replicates are averaged; those with no signal do not enter the mean.
An entry "n.d." has no value in the source: the pair was not observed among the diploids in that replicate. This suggests poor binding but is not conclusive.
As a blank, each scFv also met three strains without target: over library AAYL51, 21% of these pairings were detected, typically at 4.54 and seldom below 3.26. The control count says in how many pairings with the empty strains this scFv gave a signal, with their mean in brackets.

{"CDR-H1": "GFTFWDTAMH", "CDR-H2": "GISWNSGSIGYADSVK", "CDR-H3": "VGSGGGYFDY", "replicates, log10 nM": "5.34 n.d. n.d.", "mean, log10 nM": "5.34", "signal with controls": "0/9"}
{"CDR-H1": "GFTFDDYADH", "CDR-H2": "GISWNSGSIGYAGSLK", "CDR-H3": "VGRGGGYFDY", "replicates, log10 nM": "n.d. n.d. n.d.", "mean, log10 nM": "n.d.", "signal with controls": "1/9 (3.15)"}
{"CDR-H1": "GFHFRDYVMH", "CDR-H2": "GISWNSGSIGYADSVK", "CDR-H3": "VGRGGGYFDY", "replicates, log10 nM": "3.68 n.d. n.d.", "mean, log10 nM": "3.68", "signal with controls": "1/9 (2.90)"}
{"CDR-H1": "WFLFDDYEMH", "CDR-H2": "GISWNSGSIGYADSVK", "CDR-H3": "VGRGGGYFDY", "replicates, log10 nM": "n.d. n.d. n.d.", "mean, log10 nM": "n.d.", "signal with controls": "0/9"}
{"CDR-H1": "GGTFDDYAML", "CDR-H2": "GISWNSGSIGYADSVK", "CDR-H3": "VGRGGGYFDM", "replicates, log10 nM": "4.22 4.33 n.d.", "mean, log10 nM": "4.27", "signal with controls": "5/9 (4.80)"}
{"CDR-H1": "GFAFDDYAMH", "CDR-H2": "GISWNCGSIGYADSVK", "CDR-H3": "VGRGGGYFDC", "replicates, log10 nM": "2.43 2.45 1.99", "mean, log10 nM": "2.29", "signal with controls": "4/9 (4.07)"}
{"CDR-H1": "GFTFDDYAMH", "CDR-H2": "GIWWNSGSIGYDDSVS", "CDR-H3": "VGRGGGYFDY", "replicates, log10 nM": "4.57 5.27 n.d.", "mean, log10 nM": "4.92", "signal with controls": "1/9 (3.06)"}
{"CDR-H1": "GFTFDDYAMH", "CDR-H2": "GISWNSGSNMYGDSVK", "CDR-H3": "VGRGGGYFDY", "replicates, log10 nM": "5.98 5.07 n.d.", "mean, log10 nM": "5.53", "signal with controls": "3/9 (5.29)"}
{"CDR-H1": "QFTFGDYAMH", "CDR-H2": "GISWNSGSIVYADSVK", "CDR-H3": "VGRGGGYFDY", "replicates, log10 nM": "n.d. n.d. n.d.", "mean, log10 nM": "n.d.", "signal with controls": "2/9 (2.77)"}
{"CDR-H1": "GFTFDDYAMH", "CDR-H2": "GISNNSHNIGYADSVK", "CDR-H3": "VGRGGGYFDY", "replicates, log10 nM": "4.71 n.d. 5.17", "mean, log10 nM": "4.94", "signal with controls": "2/9 (4.23)"}
{"CDR-H1": "GFTFDDYAMH", "CDR-H2": "GISWNSGSIGYADSVK", "CDR-H3": "VARGGGYFDY", "replicates, log10 nM": "n.d. n.d. 4.63", "mean, log10 nM": "4.63", "signal with controls": "1/9 (3.93)"}
{"CDR-H1": "GFTFDDYAMH", "CDR-H2": "GFSWNSGSIGYADSVK", "CDR-H3": "VGRGEGYFDY", "replicates, log10 nM": "3.67 n.d. n.d.", "mean, log10 nM": "3.67", "signal with controls": "3/9 (4.42)"}
{"CDR-H1": "GFTFDNYAMH", "CDR-H2": "GIWWNSGSIGYADSVK", "CDR-H3": "VGRGGGYFDR", "replicates, log10 nM": "n.d. 4.23 5.86", "mean, log10 nM": "5.04", "signal with controls": "3/9 (4.70)"}
{"CDR-H1": "GFTFDDYAMH", "CDR-H2": "GISCNSGFIGYADSVK", "CDR-H3": "VGRGCGYFDY", "replicates, log10 nM": "n.d. n.d. n.d.", "mean, log10 nM": "n.d.", "signal with controls": "4/9 (4.66)"}
{"CDR-H1": "HFTPDDYAMH", "CDR-H2": "GISWNSGSIGYADSVK", "CDR-H3": "VGRQGGYFDY", "replicates, log10 nM": "4.18 n.d. n.d.", "mean, log10 nM": "4.18", "signal with controls": "1/9 (4.38)"}
{"CDR-H1": "GFTFDDPAMW", "CDR-H2": "GISWNSGSIGYADSVK", "CDR-H3": "VGRGRGYFDY", "replicates, log10 nM": "n.d. n.d. n.d.", "mean, log10 nM": "n.d.", "signal with controls": "1/9 (4.56)"}
{"CDR-H1": "GFTFDDYAMH", "CDR-H2": "IISWNSGSIGYADSVK", "CDR-H3": "VGEGGGYFIY", "replicates, log10 nM": "n.d. n.d. n.d.", "mean, log10 nM": "n.d.", "signal with controls": "2/9 (4.68)"}
{"CDR-H1": "GFTFDTYAMH", "CDR-H2": "GISWNSGSIGYADSVH", "CDR-H3": "VGRGPGYFDY", "replicates, log10 nM": "n.d. n.d. n.d.", "mean, log10 nM": "n.d.", "signal with controls": "1/9 (4.35)"}

The first 2 entries again:

CDR-H1	CDR-H2	CDR-H3	replicates, log10 nM	mean, log10 nM	signal with controls
GFTFWDTAMH	GISWNSGSIGYADSVK	VGSGGGYFDY	5.34 n.d. n.d.	5.34	0/9
GFTFDDYADH	GISWNSGSIGYAGSLK	VGRGGGYFDY	n.d. n.d. n.d.	n.d.	1/9 (3.15)

Source: Engelhart et al. 2022 (doi:10.1038/s41597-022-01779-4), MIT Lincoln Laboratory and A-Alpha Bio; data file from the FLAb repository.